# Laboratory results from patent US20190046478A1, “BIOLOGICAL MARKER FOR IDENTIFYING CANCER PATIENTS FOR TREATMENT WITH A BIGUANIDE” (THE ROYAL INSTITUTION FOR THE ADVANCEMENT OF …, priority 2017, published 2019).
# Experiments:
# [1] = test system: Eμ-Myc lymphoma cells; conditions: 48 hours, FIG. 3A
# Description: Eμ-Myc cells were cultured on a layer of irradiated Ink4a-null MEF feeder cells in DMEM and IMDM medium (50:50 mix) supplemented with 10% fetal bovine serum (FBS), 20000 U/mL penicillin, 7 mM streptomycin, 2 mM glutamine, and β-mercaptoethanol. Raji cells were cultured in RPMI medium supplemented with 10% FBS, 20000 U/mL penicillin, 7 mM streptomycin, and 2 mM glutamine. Cells were grown at 37° C. in a humidified atmosphere supplemented with 5% (v/v) CO2.
# Cells were seeded at a density of 1×10^5 cells/mL in 3.5 cm dishes, and cell counts determined via trypan blue exclusion using a TC20 Automated Cell Counter (Biorad). For viability measurements, cells were stained with Fixable Viability Dye eFluor 780 (eBioscience), and analyzed using a Gallios flow cytometer (Beckman Coulter, Fullerton, Calif.) and FlowJo software (Tree Star, Ashland, Oreg.).
# [2] = test system: Eμ-Myc cells; experiment: LC-MS analysis of GSH/GSSG, NADP+/NADPH and NAD+/NADH ratios; type: cell-based, mouse; conditions: 2 hours
# Description: Aqueous supernatants were dried by vacuum centrifugation with sample temperature maintained at −4° C. (Labconco, Kansas City Mo., USA). Pellets were subsequently resuspended in 25 μL of H2O as the injection buffer. Chromatographic separation was performed on a Scherzo SM-C18 column 3 μm, 3.0×150 mm (Imtakt Corp, JAPAN). The chromatographic gradient started at 100% mobile phase A (0.2% formic acid in water) with a 2 min hold followed with a 6 min gradient to 80% B (0.2% formic acid in MeOH) at a flow rate of 0.4 mL/min. This was followed by a 5 min hold time at 100% mobile phase B and a subsequent re-equilibration time (6 min) before next injection. […] Analyte ionization was accomplished using ESI in positive ionization mode. […] MS data were acquired in full scan mode mass range: m/z 100-1000; scan time: 1.4 s; data collection: centroid and profile modes. […] For all LC/MS analyses, 1 μL of sample was injected. The column temperature was maintained at 10° C. Data were quantified by integrating the area under the curve of each compound using MassHunter Quant (Agilent Technologies, Santa Clara, Calif., USA). Each metabolite's accurate mass ion was extracted (EIC) using a 10 ppm window. Relative concentrations were determined from external calibration curves.
# [3] = 100 μM phenformin or 10 μM Compound 1, FIG. 5C
compound,measurement,setting,value
"[H]/N=C(/N)N/C(=N/[H])NCCc1ccccc1 [phenformin, reference compound]",Viability of +17˜92 cells at doses not toxic in control cells,[1],viability of +17˜92 cells was affected
same,GSH/GSSG ratio,"[2]; 100 μM phenformin or 10 μM Compound 1, FIG. 5B",no significant changes
same,NADP+/NADPH ratio in +17˜92 cells,[2]; [3],increase their NADP+/NADPH ratio
same,NADP+/NADPH ratio in control cells,[2]; [3],not control cells
